# Target: P-selectin
# Experiment: Elisa, inhibition of P-selectin binding to 2,3 sLex
# Conditions: P-selectin 300 ng/ml; read-out: IC50 for inhibiting P-selectin binding to 2,3 sLex
# Protocol: Certain of the invention compounds were tested for their capacity to inhibit P-selectin binding to HL-60 cells, and to a chemical known to bind to P-selectin, 2,3 sLex. The following materials and procedures were used.
# Compound (3) of Example 3 and betulinic acid were solubilized in DMF to yield 100 mM solutions.
# P-Selectin Detection Solutions. Goat F(ab')2 anti-human IgG (Fc spec.)-biotin and streptavidin-AP were diluted 1:1000 in 1% BSA-TBS with 1 mM Ca^++. An Elisa assay was utilized to measure P-selectin binding to 2,3 sLex, and P-selectin was added at 300 ng/ml. An Elisa assay was also used to assay for the capacity of the invention compounds to inhibit HL-60 cell binding to P-selectin. HL-60 cells were used, and P-selectin was added at 200 ng/ml.
# 2,3 sLex was coated at 30 pmoles/well to Probind microtiter plates for Elisa. The glycolipid was added at 50 μl/well in 50% MeOH and allowed to evaporate overnight. Elisa plates and HL-60 assay plates were blocked with 5% BSA-TBS Ca^++ for more than an hour at room temperature. The plates were washed with TBS without Ca^++.
# Briefly, the assays were conducted as follows. Compound (3) and betulinic acid were added to P-selectin detection solutions at 4, 2, 1, 0.5, 0.25 and 0.125 mM for the HL-60 based assay, and at 2, 1, 0.5, 0.25, 0.125 and 0.063 mM for the assay involving 2,3 sLex. […]
smiles,measurement,value
C=C(C)[C@@H]1CC[C@]2(C(=O)O)CC[C@]3(C)[C@H](CC[C@@H]4[C@@]5(C)CC[C@H](O)C(C)(C)[C@@H]5CC[C@]43C)[C@@H]12 [betulinic acid],IC50,~125 µM

# From patent US5643884A, “Lupane triterpenoid derivatives” (Glycomed Incorporated, priority 1993, dated 1997)
